Only a part is listed here, and it is no random draw. Activity calls are given as the source filed them.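 How the source made its calls: active means inhibition above the mean inhibition across the screen plus 3 SD (cut at about 25% in these data); inactive means the rest.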
target: Platelet-activating factor acetylhydrolase (Homo sapiens) (UniProt Q13093); assay: inhibition of plasma PAF acetylhydrolase – biochemical, fluorescence polarization, human, primary screen (AID 463082); conditions: recombinant pPAFAH, FP-rhodamine probe fluorescence polarization; at 3.39 µM; active compounds read high;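 further: inhibitors block binding of the rhodamine activity-based probe so polarization drops; 0% = enzyme with DMSO and 100% = wells lacking pPAFAH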

By UniProt entry, the sequences of proteins in these tests, tags left out.
UniProt Q13093, whole entry: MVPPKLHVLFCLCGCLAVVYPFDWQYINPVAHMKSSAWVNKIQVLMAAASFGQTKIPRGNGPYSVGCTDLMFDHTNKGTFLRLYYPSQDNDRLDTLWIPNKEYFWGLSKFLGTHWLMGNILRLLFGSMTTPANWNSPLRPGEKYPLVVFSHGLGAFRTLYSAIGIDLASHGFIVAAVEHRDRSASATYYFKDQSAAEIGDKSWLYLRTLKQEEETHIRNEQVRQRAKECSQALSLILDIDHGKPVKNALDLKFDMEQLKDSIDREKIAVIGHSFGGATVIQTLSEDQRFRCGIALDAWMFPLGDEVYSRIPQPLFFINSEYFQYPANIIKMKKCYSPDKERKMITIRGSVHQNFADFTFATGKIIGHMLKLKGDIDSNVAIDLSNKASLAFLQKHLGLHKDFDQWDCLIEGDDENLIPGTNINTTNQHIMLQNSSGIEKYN

Compound	inhibition
CN(C)C1(CNC(=O)c2cccc(C#N)c2)CCCCC1	inactive: 0.82%
CCCN1CCC(Nc2cc(OC)cc(OC)c2)CC1	inactive: 1.7%
c1ccc(CN2CCC(Nc3ccccc3)CC2)cc1	inactive: 2.48%
N#Cc1ccc(C(=O)NCC2(N3CCCCC3)CCCCC2)cc1	inactive: 2.66%
CC(C)(C)OC(=O)N1CCC(N(C(=O)c2ccccc2)c2ccc(Cl)cc2)CC1	inactive: 1.35%
CCOC(=O)N1CCC(Nc2ccc(C)cc2)CC1	inactive: 2.05%
N/C(=N\O)c1c(N)no[n+]1[O-]	inactive: -6.27%
CCc1cc(C(=O)NCC2(N3CCCCC3)CCCCC2)sc1C	inactive: 2.31%
O=C(OC1CN2CCC1CC2)C1c2ccccc2C=Cc2ccccc21 (stereo not drawn)	inactive: 0.24%
COc1cc(C(=O)NCC2(N3CCOCC3)CCCCC2)cc(OC)c1C	inactive: 3.38%
O=C(NCC1(N2CCOCC2)CCCCC1)c1cc(Br)ccc1Cl	inactive: -1.21%
COc1ccc(C(=O)NCC2(N3CCOCC3)CCCCC2)cc1OC	inactive: 3.28%
COc1cccc(C(=O)N(c2cc(C)cc(C)c2)C2CCN(C(=O)OC(C)(C)C)CC2)c1	inactive: 4.82%
COc1cc(OC)cc(C(=O)NCC2(N3CCOCC3)CCCCC2)c1	inactive: -4%
CCC(CO)(C(=O)OC1CN2CCC1CC2)c1ccccc1 (stereo not drawn)	inactive: 0.34%
CN1CCC(Nc2ccc(Cl)cc2)CC1	inactive: 3.88%
CCCOc1ccc(C)cc1CN(CCCl)CCCl	inactive: 0.1%
CN1CCC(Nc2ccc(F)c(Cl)c2)CC1	inactive: 2.84%
CCOc1ncccc1C(=O)NCC1(N2CCOCC2)CCCCC1	inactive: 4.71%
O=C(O)C1(Nc2ccccc2)CCN(Cc2ccccc2)CC1	inactive: -0.83%
CC(C)(C)OC(=O)N1CCC(Nc2ccccc2)CC1	inactive: 3.71%

Compound	inhibition
CCCOc1ccc(C(=O)NCC2(N(C)C)CCCCC2)cc1	inactive: 0.04%
CCN1CCC(Nc2cccc(F)c2)CC1	inactive: 3.17%
CN(C)c1ccc(C(=O)NCC2(N3CCCCC3)CCCCC2)cc1	inactive: 0.57%
O=C(NCC1(N2CCCCC2)CCCCC1)c1ccco1	inactive: -5.64%
COc1cc(OC)cc(C(=O)NCC2(N3CCCCC3)CCCCC2)c1	inactive: -6.87%
Fc1ccccc1NC1CCN(Cc2ccccc2)CC1	inactive: 0.64%
Cc1ccc(C(=O)NCC2(N3CCCCC3)CCCCC2)o1	inactive: 0.8%
Cc1ccc(OCC(C)C)c(CN(CCCl)CCCl)c1	inactive: 4.45%
CCOC(=O)N1CCC(Nc2cccc(C)c2)CC1	inactive: 2.18%
CCOc1ccc(C)cc1CN(CCCl)CCCl	inactive: 3.2%
COc1ccc(NC2CCN(CCc3ccccc3)CC2)c(OC)c1	inactive: 1.67%
O=C(NCC1(N2CCCCC2)CCCCC1)c1ccc(F)cc1	inactive: -3.36%
Cc1cc(C)cc(N(C(=O)c2ccccc2)C2CCN(C(=O)OC(C)(C)C)CC2)c1	inactive: 1.28%
O=C(NCC1(N2CCCCC2)CCCCC1)c1ccc(Cl)nc1	inactive: -2.01%
O=C(NCC1(N2CCOCC2)CCCCC1)c1cc2ccccc2o1	inactive: 12%
COc1ccc(Cl)cc1C(=O)NCC1(N2CCOCC2)CCCCC1	inactive: 0.47%
N#CC1(Nc2ccccc2)CCN(Cc2ccccc2)CC1	inactive: 4.27%
O=C(NCC1(N2CCCCC2)CCCCC1)c1ccc(Cl)s1	inactive: -2.74%
O=C(OC1CN2CCC1CC2)C1c2ccccc2Oc2ccccc21 (stereo not drawn)	inactive: -0.93%
CCOC(=O)N1CCC(Nc2ccc(OC)cc2)CC1	inactive: 5.06%
COc1ccc(C(=O)NCC2(N3CCCCC3)CCCCC2)c(OC)c1OC	inactive: 2.03%

Compound	inhibition
CC(C)(C)OC(=O)N1CCC(N(C(=O)c2ccccc2)c2ccc(F)cc2)CC1	inactive: 3.49%
COc1ccc(C(=O)NCC2(N3CCCCC3)CCCCC2)cc1	inactive: 5.71%
O=C(NCC1(N2CCCCC2)CCCCC1)c1cccs1	inactive: 2.72%
O=C(NCC1(N2CCCCC2)CCCCC1)c1ccc(=O)[nH]c1	inactive: 1.16%
CSc1ccccc1C(=O)NCC1(N2CCCCC2)CCCCC1	inactive: 1.04%
CN1CCC(Nc2cccc(F)c2)CC1	inactive: 4.22%
O=C(NCC1(N2CCCCC2)CCCCC1)c1cncc(Br)c1	inactive: -0.65%
CC(C)c1ccc(NC2CCN(C(=O)OC(C)(C)C)CC2)cc1	inactive: 1.51%
CN(C)c1cccc(C(=O)NCC2(N3CCCCC3)CCCCC2)c1	inactive: 0.54%
COc1ccc(CN(CCCl)CCCl)cc1Cl	inactive: 0.94%
O=C(NCC1(N2CCOCC2)CCCCC1)c1cc(F)c(F)cc1Cl	inactive: 2.68%
COc1cc(OC)c(C(=O)NCC2(N(C)C)CCCCC2)cc1OC	inactive: 4.76%
O=C(NCC1(N2CCCCC2)CCCCC1)c1cccc(C(F)(F)F)c1	inactive: 2.3%
O=C(NCC1(N2CCOCC2)CCCCC1)c1cc(=O)[nH]c2ccccc12	inactive: -3.03%
COc1cc(C(=O)NCC2(N3CCCCC3)CCCCC2)ccc1OC(F)F	inactive: 2.3%
COc1ccc(NC2CCN(C(=O)OC(C)(C)C)CC2)cc1	inactive: -4.44%
CN1CCN(CCOC(=O)C(O)(c2ccccc2)c2ccccc2)CC1	inactive: -0.5%
O=C(NCC1(N2CCCCC2)CCCCC1)c1ccc(OC(F)F)cc1	inactive: -0.26%
N#CC1(Nc2ccccc2)CCN(CCc2ccccc2)CC1	inactive: 3.53%
CCN1CCC(Nc2ccc(Cl)cc2)CC1	inactive: 5.63%
O=C(NCC1(N2CCCCC2)CCCCC1)c1cccc([N+](=O)[O-])c1	inactive: 2.41%

— PubChem BioAssay AID463082 (The Scripps Research Institute Molecular Screening Center, 2010)
